Source: ChEMBL document CHEMBL1134181, “Synthesis and biological evaluation of novel amides of polyunsaturated fatty acids with dopamine” (Bioorg Med Chem Lett, 2001)

Chains of the proteins cited; added tags and fusions are not shown.
UniProt P20272, whole entry: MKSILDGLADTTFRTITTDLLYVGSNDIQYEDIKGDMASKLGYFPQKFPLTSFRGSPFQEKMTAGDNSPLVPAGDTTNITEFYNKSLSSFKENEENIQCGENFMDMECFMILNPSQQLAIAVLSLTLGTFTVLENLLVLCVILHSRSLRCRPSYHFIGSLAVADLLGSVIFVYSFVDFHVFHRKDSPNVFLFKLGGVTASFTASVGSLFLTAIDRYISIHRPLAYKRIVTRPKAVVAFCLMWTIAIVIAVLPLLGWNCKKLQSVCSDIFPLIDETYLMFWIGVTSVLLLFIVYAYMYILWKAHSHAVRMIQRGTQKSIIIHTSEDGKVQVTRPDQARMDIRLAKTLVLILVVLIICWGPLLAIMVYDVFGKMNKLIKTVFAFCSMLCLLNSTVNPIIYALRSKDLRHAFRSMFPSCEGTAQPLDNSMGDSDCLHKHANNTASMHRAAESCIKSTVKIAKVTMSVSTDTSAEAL

Target: Cannabinoid receptor 1 (Rattus norvegicus, UniProt P20272)
Experiment: Concentration required to displace 0.4 nM [3H]SR-141,716A from CB1 receptor in rat brain preparations in the presence of 0.1 mM phenylmethyl sulfonyl fluoride
Type: tissue-based

**Q.** Which Ki does the source give for `CCCCC/C=C\C/C=C\C/C=C\C/C=C\CCCC(=O)NCCO` [ANANDAMIDE] here?
**A.** The Ki was 800 nM.
